This experiment is filed under the species Mus musculus. Briefly: Compound was evaluated for Carcinogenicity based on concentration necessary to produce one tumor per mouse (Strain A).
As for `CCCCc1ccc(N(CCCl)CCCl)cc1`, the Log 1/B+1 amounted to 2.22.

Take `Nc1cc(N)cc(N(CCCl)CCCl)c1`: the Log 1/B+1 stood at 4.12.

Compound `NS(=O)(=O)c1ccc(N(CCCl)CCCl)cc1` had a Log 1/B+1 of 1.66.

For `COc1ccc(N(CCCl)CCCl)cc1`, the Log 1/B+1 stood at 3.4.

The record behind these values is ChEMBL document CHEMBL1121662 (1981).
